Format in all cases: cell-based
For assay [1], the species on record is Homo sapiens. In words: Selectivity index, ratio of IC50 for inhibition of human Nav1.1 expressed in HEK293 cells by electrophysiology assay to IC50 for inhibition of human Nav1.7 expressed in HEK293 cells by electrophysiology assay.
For assay [2], the species on record is Homo sapiens. In words: Selectivity index, ratio of IC50 for inhibition of human Nav1.2 expressed in HEK293 cells by electrophysiology assay to IC50 for inhibition of human Nav1.7 expressed in HEK293 cells by electrophysiology assay.
The species entered for assay [3] is Homo sapiens. Nature of the assay: Selectivity index, ratio of IC50 for inhibition of human Nav1.3 expressed in HEK293 cells by electrophysiology assay to IC50 for inhibition of human Nav1.7 expressed in HEK293 cells by electrophysiology assay.
The species entered for assay [4] is Homo sapiens. Nature of the assay: Selectivity index, ratio of IC50 for inhibition of human Nav1.4 expressed in HEK293 cells by electrophysiology assay to IC50 for inhibition of human Nav1.7 expressed in HEK293 cells by electrophysiology assay.
Assay [5] is filed under the species Homo sapiens. Nature of the assay: Selectivity index, ratio of IC50 for inhibition of human Nav1.5 expressed in HEK293 cells by electrophysiology assay to IC50 for inhibition of human Nav1.7 expressed in HEK293 cells by electrophysiology assay.
For assay [6], the species on record is Homo sapiens. Nature of the assay: Selectivity index, ratio of IC50 for inhibition of human Nav1.6 expressed in HEK293 cells by electrophysiology assay to IC50 for inhibition of human Nav1.7 expressed in HEK293 cells by electrophysiology assay.
The species entered for assay [7] is Homo sapiens. In words: Selectivity index, ratio of IC50 for inhibition of human Nav1.8 expressed in HEK293 cells by electrophysiology assay to IC50 for inhibition of human Nav1.7 expressed in HEK293 cells by electrophysiology assay.

Bounds are passed on as bounds.

For `NC(=O)[C@@H]1CC[C@H](c2ccc(OCc3ccccc3F)cc2)N1`, the Ratio IC50 in the assay listed under Homo sapiens [1] is under 1; in the assay filed under Homo sapiens [2] it was under 1; in the assay listed under Homo sapiens [3], under 1; in the assay filed under Homo sapiens [4], under 1; in the assay listed under Homo sapiens [5], 2.5; in the assay filed under Homo sapiens [6], under 1. The Ratio IC50 in the assay listed under Homo sapiens [7] is under 1.

For the origin of these results see ChEMBL document CHEMBL4321785, “Challenges and Opportunities for Therapeutics Targeting the Voltage-Gated Sodium Channel Isoform NaV1.7” (J Med Chem, 2019).
